Drawing on BindingDB's records for 21824780, this text covers IC50 for one molecule.

By UniProt entry, the sequences of proteins in these tests, tags left out.
UniProt O60741, whole entry: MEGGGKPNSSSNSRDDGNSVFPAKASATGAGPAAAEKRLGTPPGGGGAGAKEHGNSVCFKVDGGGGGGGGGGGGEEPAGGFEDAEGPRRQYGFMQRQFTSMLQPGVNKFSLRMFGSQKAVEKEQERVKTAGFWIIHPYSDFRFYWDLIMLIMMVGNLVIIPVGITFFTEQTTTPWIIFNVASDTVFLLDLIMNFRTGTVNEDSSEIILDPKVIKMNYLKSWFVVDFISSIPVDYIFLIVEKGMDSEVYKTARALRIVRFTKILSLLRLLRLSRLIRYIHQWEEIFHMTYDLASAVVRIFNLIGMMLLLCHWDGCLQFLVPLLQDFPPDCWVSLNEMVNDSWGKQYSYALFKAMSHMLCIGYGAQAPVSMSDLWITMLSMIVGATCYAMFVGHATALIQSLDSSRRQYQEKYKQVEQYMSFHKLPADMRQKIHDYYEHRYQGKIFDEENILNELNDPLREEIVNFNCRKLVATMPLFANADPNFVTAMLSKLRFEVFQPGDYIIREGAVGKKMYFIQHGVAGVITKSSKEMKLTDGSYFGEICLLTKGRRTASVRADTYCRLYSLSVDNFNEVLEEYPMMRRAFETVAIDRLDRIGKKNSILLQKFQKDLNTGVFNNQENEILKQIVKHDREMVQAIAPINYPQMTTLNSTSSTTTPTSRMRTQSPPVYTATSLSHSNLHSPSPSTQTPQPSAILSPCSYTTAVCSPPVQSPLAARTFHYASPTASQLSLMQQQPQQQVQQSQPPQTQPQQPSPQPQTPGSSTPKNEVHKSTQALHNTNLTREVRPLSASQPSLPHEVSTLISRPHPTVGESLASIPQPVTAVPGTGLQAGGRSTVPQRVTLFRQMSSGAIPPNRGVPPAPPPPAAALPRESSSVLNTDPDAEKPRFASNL

The term IC50 denotes the concentration needed to halve the response being measured. The low end stands for greater potency, the high end for weaker potency.

SMILES strings stand for the structures. Some compounds may have been tested in ways that are not shown here.

In the test the target is Potassium/sodium hyperpolarization-activated cyclic nucleotide-gated channel 1 (Homo sapiens, UniProt O60741). The test is described as follows: Inhibition of human HCN1 heterologously expressed in HEK-293 cells after 30 mins by VIPR assay.

`COc1ccccc1C(=O)NCC1(N2CCOCC2)CCCCC1` returned an IC50 of over 200 µM.
